Experimental data reported in publication PMC12526156, “Optimization of the Macrocyclic Tetrapeptide [D-Trp]CJ-15,208 to Prevent Stress-Induced Relapse of Cocaine-Seeking Behavior” (Molecules, 2025).
Where a SMILES comes first, the peptide text is derived from it. [ ]: non-standard residue; d: D form. The star is where a group is joined. dPhe(3,5-F2) = N[C@H](Cc1cc(F)cc(F)c1)C(=O)O; dPhe(3-Me) = Cc1cccc(C[C@@H](N)C(=O)O)c1; dPhe(3-F) = N[C@H](Cc1cccc(F)c1)C(=O)O; For = O=C*

Sequences of proteins named here, by UniProt entry; tags and fusion partners are left off.
UniProt P33534, whole entry: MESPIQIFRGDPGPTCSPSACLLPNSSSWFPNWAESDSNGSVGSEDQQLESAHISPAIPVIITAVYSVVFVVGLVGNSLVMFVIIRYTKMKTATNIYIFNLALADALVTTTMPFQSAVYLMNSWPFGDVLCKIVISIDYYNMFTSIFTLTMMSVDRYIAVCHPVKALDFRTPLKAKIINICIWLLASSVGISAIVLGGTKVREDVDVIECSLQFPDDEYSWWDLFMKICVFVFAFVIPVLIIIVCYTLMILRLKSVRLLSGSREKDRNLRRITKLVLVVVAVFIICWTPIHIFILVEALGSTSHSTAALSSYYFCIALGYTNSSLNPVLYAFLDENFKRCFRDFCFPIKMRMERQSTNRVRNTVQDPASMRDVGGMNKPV

Target: KOR (Mus musculus, UniProt P33534)
Test: 55 °C WWTW assay, antagonism of peripherally administered U50,488 (10 mg/kg, i.p.)
Conditions: for KOR antagonism (reduction of KOR agonist-induced antinociception): 30 mg/kg, p.o.
[1] = U50,488 10 mg/kg i.p. 2.5 h later

SMILES	KOR antagonism (reduction of KOR agonist-induced antinociception) [1]	doses significantly antagonizing U50,488-mediated antinociception (2.5 h pretreatment, U50,488 10 mg/kg, i.p.)	antagonism of U50,488-mediated antinociception (10 nmol, i.c.v., U50,488 10 mg/kg i.p. 2.5 h later)
O=Cn1cc(C[C@H]2NC(=O)[C@H](Cc3ccccc3)NC(=O)[C@H]3CCCN3C(=O)[C@H](Cc3ccccc3)NC2=O)c2ccccc21 [Analog 3, [D-Trp(formamide)]CJ-15,208] (cyclo(F[dP]F[dW](For)))	robust KOR antagonist activity	–	–
O=C1N[C@H](Cc2ccccc2)C(=O)N[C@@H](Cc2ccccc2)C(=O)N2CCC[C@@H]2C(=O)N[C@H]1Cc1ccccc1 [Analog 4, cyclo[Phe-D-Pro-Phe-D-Phe]] (cyclo(F[dP]F[dF]))	robust KOR antagonist activity	–	–
O=C1N[C@H](Cc2cccc(F)c2)C(=O)N[C@@H](Cc2ccccc2)C(=O)N2CCC[C@@H]2C(=O)N[C@H]1Cc1ccccc1 [Analog 6, [D-Phe(m-F)^4]CJ-15,208] (cyclo(F[dP]F[dPhe(3-F)]))	robust KOR antagonist activity	30 mg/kg, p.o.	–
O=C1N[C@H](Cc2cc(F)cc(F)c2)C(=O)N[C@@H](Cc2ccccc2)C(=O)N2CCC[C@@H]2C(=O)N[C@H]1Cc1ccccc1 [Analog 9, [D-Phe(3,5-F2)^4]CJ-15,208] (cyclo(F[dP]F[dPhe(3,5-F2)]))	–	–	robust KOR antagonist activity
Cc1cccc(C[C@H]2NC(=O)[C@H](Cc3ccccc3)NC(=O)[C@H]3CCCN3C(=O)[C@H](Cc3ccccc3)NC2=O)c1 [Analog 14, [D-Phe(m-Me)^4]CJ-15,208] (cyclo(F[dP]F[dPhe(3-Me)]))	robust KOR antagonist activity	–	–
